Sampled rows, rich in hits. Any-hit rate of the full collection: about 2.8%.
Yeast UUG start – alters start codon recognition fidelity in yeast; S. cerevisiae UUG-firefly luciferase reporter, luminescence/redox ratio; activity score, % at 18.7 µM; actives 0.13% (n = 350,000); AID 602363;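 active = replicate mean at a twofold rise or more, about +100% in these data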;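 also: firefly luciferase made from a UUG start codon reports start codon fidelity; reporter light over untreated wells divided by growth signal over untreated wells; some hits fall short of that in this replicate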
esBAF inh – Bmi1 luciferase reporter increase in mESCs, primary screen, esBAF inhibitor project, mouse ES cells, Bmi1 luciferase knock-in, single point | 24 h; 100% = twice the neutral-well signal | reporter increase, % at 12.5 µM | 2% of 350,000 active | AID 602393, 2012; in the data active means activation above about 40%; inconclusive means no clear call, values can overlap the other calls;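 further: 0% = median of the plate's neutral control wells and 100% = double that signal; a rise in the Bmi1 reporter signal indicates esBAF inhibition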
PglD DTNB – C. jejuni PglD acetyltransferase inhibitors, primary screen, biochemical, DTNB colorimetric, single point; 0.098% of 360,000 active; inhibition, % at 12.5 µM; AID 602405, 2012; purified PglD enzyme, DTNB colorimetric CoA detection; UDP-N-acetylbacillosamine N-acetyltransferase PglD (Campylobacter jejuni); in the data active means inhibition above about 16%, passing the limit was not always enough; inconclusive means no clear call, values can overlap the other calls
Wnt bcat act – Wnt/beta-catenin pathway activators, primary screen, cell-based, plate reader, single point; 1.2% of 300,000 active; activation, % at 9.35 µM; Wnt/beta-catenin reporter cell assay, activator; in the data active means activation above about 30%, passing the limit was not always enough; inconclusive means no clear call, values can overlap the other calls;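 further: 0% = neutral control wells and 100% = positive control wells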
MITF TRPM1 HTS – activators of MITF-driven TRPM1 promoter reporter, primary screen, cell-based, SK-MEL-5, luciferase, single point; activation, % at 12.5 µM; SK-MEL-5 TRPM1-promoter luciferase, 24 h; % of positive control, neutral wells = 0; AID 588334, 2011; 0.75% of 300,000 active;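 active means mean activation of at least 80% with every replicate also reaching 80%; inconclusive means mean reaches 80% but some replicate falls short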;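 further: 0% = neutral control wells and 100% = parthenolide positive control wells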
miR122 inh – miR-122 Renilla sensor signal increase in Huh7, primary screen, miR-122 inhibitor project, cell-based, single point, plate reader; Huh7 miR-122 Renilla luciferase sensor, 48 h; neutral wells = 0, positive control = 100; activation (reporter increase), % at 12.5 µM; 0.3% of 340,000 active;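 active means mean replicate activation score at least 90 and every replicate individually at or above 90; inconclusive means only one of the two criteria met; inactive means neither criterion met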;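 further: higher luciferase means less miR-122 activity so hits act as miR-122 inhibitors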
Active calls of the source: *; ? = inconclusive; . = not tested or not shown; [ ] = remark or other dose.

Letters – A = Yeast UUG start; B = esBAF inh; C = PglD DTNB; D = Wnt bcat act; E = MITF TRPM1 HTS; F = miR122 inh
Structure: Cc1cccc(NC(=S)N2N=CCC2c2ccccc2)c1 (stereo not drawn)
  A: -23; B: 49*; C: 3; D: 6; E: 48; F: 3

Structure: CO[C@H]1CN(C)C(=O)c2cc(NC(=O)c3cc(C)on3)ccc2OC[C@H](C)N(CC2CC2)C[C@@H]1C
  A: .; B: 2; C: -2; D: .; E: .; F: .

Structure: COc1ccc(C(=O)n2nc(C)cc2Nc2ccccc2)cc1
  A: -28; B: 55*; C: 2; D: .; E: 17; F: 25

Structure: Cc1cc(Nc2ccccc2)nn1C(=O)c1ccccc1
  A: -5; B: -7; C: -5; D: 1; E: -1; F: -1

Structure: CCN1CCN(c2cc(C)c3cc(NC(=O)c4cc(OC)cc(OC)c4)ccc3n2)CC1
  A: -18; B: 12; C: 3; D: 32*; E: 7; F: -2

Structure: Cc1cc(N2CCOCC2)nc2ccc(Cl)cc12
  A: .; B: 57*; C: .; D: 21; E: ?; F: .

Structure: COc1ccc(NC(=O)CCC(=O)Nc2ccc3nc(N4CCOCC4)cc(C)c3c2)c(OC)c1
  A: -4; B: 42*; C: -5; D: 3; E: 60; F: -2

Structure: Cc1cc(N2CCOCC2)nc2ccc(NC(=S)N3CCN(c4ccccc4)CC3)cc12
  A: .; B: .; C: .; D: 3; E: -27; F: .

Structure: O=C(Nc1ccc2ccccc2c1)c1cccc(F)c1
  A: -5; B: 50*; C: 4; D: 46*; E: 123*; F: -3

Structure: Cc1cc(C(=O)Nc2ccc3ccccc3c2)c(C)o1
  A: -20; B: 1; C: -3; D: 34*; E: 70; F: 4

Structure: O=C(Nc1ccc2[nH]ncc2c1)c1cccc(F)c1
  A: -8; B: 24; C: 1; D: -3; E: .; F: .

Structure: Cc1ccc2cc(NC(=O)c3ccccc3)ccc2n1
  A: -31; B: 3; C: 5; D: 40*; E: 49; F: 1

Structure: Cc1ccc2cc(NC(=O)c3cccc(F)c3)ccc2n1
  A: .; B: 16; C: .; D: 50*; E: .; F: 4

Structure: Cc1ccc2cc(NC(=O)CC(CC(=O)O)c3ccccc3)ccc2n1 (stereo not drawn)
  A: -8; B: -7; C: 2; D: 0; E: 0; F: -6

Structure: CC(=O)N1CC[C@@H]2[C@H](CO)Nc3ccc(C#Cc4cccnc4)cc3[C@@H]21
  A: -5; B: -2; C: 0; D: .; E: .; F: 5[16.7 µM]

Structure: C[C@H]1CCCCO[C@@H](CN(C)C(=O)Cc2ccccc2)[C@@H](C)CN([C@@H](C)CO)C(=O)c2cc(NS(=O)(=O)c3cn(C)cn3)ccc2O1
  A: -16; B: 9; C: 1; D: .; E: .; F: 3[16.7 µM]

Structure: COCC(=O)N(C)C[C@H]1Oc2ncc(-c3cccc(OC)c3)cc2C(=O)N([C@@H](C)CO)C[C@@H]1C
  A: 6; B: -4; C: 6; D: .; E: .; F: -3[16.7 µM]

Structure: CCCNC(=O)[C@H]1[C@H](CO)[C@H]2Cn3c(ccc(C4=CCCC4)c3=O)[C@@H]1N2CCC(F)(F)F
  A: .; B: 2; C: -1; D: .; E: .; F: 5[16.7 µM]

Structure: O=C(NN/C(=N/S(=O)(=O)c1ccc(Cl)cc1)c1ccccc1)c1cccc(Cl)c1
  A: -25; B: 36; C: -2; D: 33*; E: 43; F: 7

Structure: O=C(O)c1ccc(N/C(=N\S(=O)(=O)c2ccc(Cl)cc2)c2ccccc2)cc1
  A: -12; B: 1; C: -3; D: 3; E: -7; F: 1

Structure: COc1ccccc1N/C(=N/S(=O)(=O)c1ccc(Cl)cc1)c1ccccc1
  A: -13; B: -7; C: -3; D: .; E: 4; F: 55

Structure: COc1ccccc1N/C(=N/S(=O)(=O)c1ccc(C)cc1)c1ccccc1
  A: 6; B: .; C: 5; D: -3; E: 3; F: 135*

Structure: COc1ccc(NC(=S)NC(=NS(=O)(=O)c2ccc(Cl)cc2)c2ccccc2)cc1
  A: -16; B: 113*; C: 6; D: 13; E: 57; F: .

Structure: O=S(=O)(/N=C(/NC(=S)Nc1ccccc1)c1ccccc1)c1ccc(Cl)cc1
  A: -32; B: 68*; C: -2; D: -1; E: 112*; F: .

Structure: CO[C@H]1CN(C)C(=O)c2ccc(NC(=O)C3CC3)cc2OC[C@H](C)N(Cc2cc(F)ccc2F)C[C@@H]1C
  A: .; B: 31; C: -3; D: .; E: .; F: .

Continuation.
Letters – A = Yeast UUG start; B = esBAF inh; C = PglD DTNB; D = Wnt bcat act; E = MITF TRPM1 HTS; F = miR122 inh
Structure: CC(C)NC(=O)Nc1ccc2c(c1)C(=O)N([C@H](C)CO)C[C@H](C)[C@H](CN(C)Cc1ccc(Cl)c(Cl)c1)OCCCC[C@H](C)O2
  A: 9; B: -2; C: -1; D: .; E: .; F: 3[16.7 µM]

Structure: COc1cccc(-c2ccc([C@H]3[C@@H](C#N)N(C(=O)Cc4ccncc4)[C@@H]3CO)cc2)c1
  A: .; B: 9; C: 3; D: .; E: .; F: .

Structure: C[C@H](CO)N1C[C@H](C)[C@@H](CN(C)Cc2cncnc2)Oc2cc(-c3ccccc3F)ccc2S1(=O)=O
  A: 28; B: -6; C: -2; D: .; E: .; F: 31[16.7 µM]

Structure: COc1ccc(NC(=S)N/C(=N/S(=O)(=O)c2ccc(C)cc2)c2ccccc2)cc1
  A: -20; B: 59*; C: 2; D: 7; E: 31; F: 7

Structure: C/C(=N\S(=O)(=O)c1ccc(C)cc1)NC(=S)Nc1ccccc1
  A: .; B: .; C: .; D: 4; E: -4; F: -7

Structure: Cc1ccccc1S(=O)(=O)N1[C@H](C#N)[C@H](c2ccc(-c3ccccc3)cc2)[C@@H]1CO
  A: -12; B: 1; C: 6; D: .; E: .; F: .

Structure: CC(=O)c1cnc(Nc2cccc(C)c2)s1
  A: .; B: .; C: .; D: -2; E: 92*; F: .

Structure: O=C(c1ccccc1)c1cnc(Nc2ccc(Cl)c(Cl)c2)s1
  A: -9; B: -1; C: -3; D: .; E: .; F: 22

Structure: CC(C)NC(=O)N(C)C[C@@H]1OCCCC[C@H](C)Oc2ccc(N(C)C)cc2C(=O)N([C@H](C)CO)C[C@H]1C
  A: .; B: .; C: 2; D: .; E: .; F: 0[16.7 µM]

Structure: CCN1C(=O)/C(=C/N(C)c2ccccc2)OC1=S
  A: -7; B: 39; C: 1; D: 6; E: 46; F: 0

Structure: CCN1C(=O)/C(=C\N(C(C)=O)c2ccccc2)OC1=S
  A: -22; B: 45*; C: 6; D: .; E: 6; F: -11

Structure: COc1ccccc1C#Cc1cnc2c(c1)C(=O)N([C@@H](C)CO)C[C@H](C)[C@@H](CN(C)C(C)=O)O2
  A: -5; B: -3; C: 2; D: .; E: .; F: -5[16.7 µM]

Structure: O=C(CN1CCOCC1)N[C@@H]1CC[C@@H](CCNC(=O)Nc2cc(F)ccc2F)O[C@H]1CO
  A: 2; B: 3; C: -3; D: .; E: .; F: .

Structure: Cn1cnc(S(=O)(=O)N2CCCCN3[C@@H](CO)[C@@H](c4ccc(-c5ccccc5F)cc4)[C@@H]3C2)c1
  A: 1; B: 2; C: -6; D: .; E: .; F: -6[16.7 µM]

Structure: CCCCCCC(=O)c1c(C)[nH]c(C(=O)OCC)c1C
  A: 18; B: 55*; C: 7; D: .; E: .; F: 3

Structure: CCOC(=O)c1c(C)[nH]c(C(=O)OCC(=O)NCc2ccco2)c1C
  A: -7; B: 49*; C: 2; D: .; E: .; F: 1

Structure: CCOC(=O)c1[nH]c(C)c(C(=O)Nc2ccccc2C)c1C
  A: -7; B: 12; C: 5; D: -1; E: -5; F: 138*

Structure: CCOC(=O)c1[nH]c(C)c(C(=O)Nc2cc(Cl)ccc2C)c1C
  A: -19; B: .; C: 1; D: -5; E: -8; F: 39

Structure: CCOC(=O)c1c(C)[nH]c(C(=O)OCc2ccccc2)c1C
  A: 4; B: 76*; C: 2; D: 43*; E: 92*; F: -7

Structure: CCCCCC(=O)c1c(C)[nH]c(C(=O)OCC)c1C
  A: .; B: .; C: .; D: 9; E: 0; F: .

Structure: Cc1noc(C)c1NC(=O)NCC[C@H]1CC[C@@H](NC(=O)Cc2cccnc2)[C@H](CO)O1
  A: -3; B: 0; C: 2; D: .; E: .; F: .

Structure: Cc1nn(C)cc1NC(=O)C[C@H]1CC[C@@H]2[C@@H](COc3ccc(NC(=O)Nc4cccc(Cl)c4)cc3C(=O)N2C)O1
  A: -17; B: -9; C: 0; D: .; E: .; F: -16[16.7 µM]

An excerpt from above in order of molecular weight, descending.
Letters – A = Yeast UUG start; B = esBAF inh; C = PglD DTNB; D = Wnt bcat act; E = MITF TRPM1 HTS; F = miR122 inh
Structure: Cc1cc(N2CCOCC2)nc2ccc(NC(=S)N3CCN(c4ccccc4)CC3)cc12
  A: .; B: .; C: .; D: 3; E: -27; F: .

Structure: COc1ccc(NC(=S)N/C(=N/S(=O)(=O)c2ccc(C)cc2)c2ccccc2)cc1
  A: -20; B: 59*; C: 2; D: 7; E: 31; F: 7

Structure: Cc1cc(Nc2ccccc2)nn1C(=O)c1ccccc1
  A: -5; B: -7; C: -5; D: 1; E: -1; F: -1
